This passage reports Activity and mortality results from ChEMBL document CHEMBL3046894, “Synthesis and Herbicidal Activity of Pyrimidinyl Salicylic and Thiosalicylic Acids” (J Pestic Sci, 1996).

Structures are written as SMILES. Active and inactive are the calls of the source. The calls are words filed in the database; no cut-off is given here.

The subject of assay [1] is Echinochloa crus-galli. Kind of assay: Post-emergence herbicidal activity against Echinochloa crus-galli (barnyard grass) assessed as mortality at 200 g a.i/10 a applied 11 days after germination as foliar spray.
Assay [2] has as its system Ipomoea lacunosa. Kind of assay: Post-emergence herbicidal activity against Ipomoea lacunosa assessed as mortality at 100 g a.i/10 a applied 11 days after germination as foliar spray.
In assay [3] the test system is Abutilon theophrasti. Kind of assay: Post-emergence herbicidal activity against Abutilon theophrasti (velvetleaf) assessed as mortality at 100 g a.i/10 a applied 11 days after germination as foliar spray.
In assay [4] the test system is Echinochloa crus-galli. Kind of assay: Post-emergence herbicidal activity against Echinochloa crus-galli (barnyard grass) assessed as mortality at 100 g a.i/10 a applied 11 days after germination as foliar spray.
The subject of assay [5] is Ipomoea lacunosa. Kind of assay: Post-emergence herbicidal activity against Ipomoea lacunosa assessed as mortality at 200 g a.i/10 a applied 11 days after germination as foliar spray.
In assay [6] the test system is Xanthium strumarium. In words: Post-emergence herbicidal activity against Xanthium strumarium (cocklebur) assessed as mortality at 100 g a.i/10 a applied 11 days after germination as foliar spray.
Assay [7] relates to Abutilon theophrasti. In words: Post-emergence herbicidal activity against Abutilon theophrasti (velvetleaf) assessed as mortality at 200 g a.i/10 a applied 11 days after germination as foliar spray.
The test system of assay [8] is Xanthium strumarium. Kind of assay: Post-emergence herbicidal activity against Xanthium strumarium (cocklebur) assessed as mortality at 200 g a.i/10 a applied 11 days after germination as foliar spray.

For `C[As](=O)(O)O`, the outcome in the assay on Echinochloa crus-galli [1], in the assay on Echinochloa crus-galli [4], in the assay with Ipomoea lacunosa [5] and in the assay with Xanthium strumarium [8] was Active. Besides, the mortality in the assay on Ipomoea lacunosa [2] and with Abutilon theophrasti [3] was under 5% each time. Also, the outcome in the assay on Xanthium strumarium [6] and with Abutilon theophrasti [7] was inactive.
